Test results from patent US7135295B1, “Detection of small molecules by use of a piezoelectric sensor” (dated 2006).
This is a selection: effects in other tests are not listed, and their absence says nothing.

How the values were obtained:
[1] = system: 5B3 antibody; assay: ELISA binding / inhibition assay of 5B3 antibody with haptens
Description: Spleen cells of a mouse with the highest titre of binding antibodies (and specificity to TNT, see for detection details below) were fused with the NSO, murine myeloma cell line as described before (Eshhar, Monoclonal antibody strategy and techniques. In: Hybridoma in Biotechnology and Medicine, Springer, T., ed. Plenum Press, p. 1, 1985). Briefly, 10^8 spleen cells were fused with 2×10^7 NSO myeloma cells using 41% PEG for 2 mins. at 37° C. Following removal of PEG by dilution and centrifugation, cells were resuspended in DMEM supplemented with 10% horse serum and HAT selective medium and distributed into 7 microculture plates. […] (See binding and inhibition assays (1.4 and 1.5 below). From 672 wells with hybridoma growth 32 scored positive for TNP-BSA binding. Six out of these were inhibited by 10^−5 M TNT, out of which a hybridoma designated 5B3 was selected. The TNT-specific hybridomas were cloned and subcloned for 2–3 cycles and used to prepare ascites fluid which served as the source for purified antibodies.
Regular ELISA has been used to determine anti-TNT antibody activity. […] Reaction was stopped when sufficient color had been developed by the addition of 50 μl of 0.2 M citric acid and the OD at 620 nm was determined in ELISA plate reader. […]

[2] = system: IgG TTDA 5B3-Ab; assay: QCM displacement embodiment, IgG TTDA 5B3-Ab charged antigen monolayer
Description: The sensing member is mounted in the cell, the cell volume is filled with a solution, e.g. 0.01 M phosphate buffer, pH 7.4 comprising also 0.1 M NaCl (“NaCl-containing PBS”). The sensing member is allowed to equilibrate until a constant frequency of the crystal is observed.
The sensing surface in accordance with this embodiment, where the neutralizing agent is an antibody, comprises an antigen-antibody monolayer. Electrode 160 may be provided, a priori with antibodies bound thereon, although alternatively, the antibody may be bound to the sensing surface in situ. In the latter case, an antibody solution, e.g. 50 μl of a 1 mg/ml antibody solution is injected into the cell and permitted to incubate with the electrode for a time to allow binding, e.g. 15 minutes. Association of the antibody to the electrode can be monitored by the decrease in the resonance frequency of the crystal (see FIG. 9 and the accompanying description below). The cell may then be rinsed with several cell volumes of a solution, e.g. a buffer solution, propelled by means of peristaltic pump 176. The electrode is then allowed to calibrate until the resonance frequency remains constant for a period of time.
Samples may then be injected into the cells. Detachment of the antibody from the monolayer is evidenced by a frequency increase of the crystal (see exemplary FIG. 10 and the accompanying description below). After each positive sample the cell is flushed with a buffer solution and allowed to re-equilibrate to reach a constant frequency.
An antigen monolayer electrode was treated for 15 mins. with the Ab. […] A decrease of about Δf=−100 Hz was observed. The charged electrode was rinsed for 3 mins with the buffer solution and its resonance frequency was stabilized.
50 ml of stock solution of 2,4-DNT, prepared as described under 3.4 was injected into the cell to yield the desired concentration.
The electrode was then rinsed for three mins. with the buffer solution and its frequency was re-stabilized. A sample of 2,4-DNT was injected again into the cell to yield the sum concentration of 6.25 ng/ml. […] The electrode was rinsed again and its frequency was stabilized. A 2,4-DNT sample was injected into the cell to yield a concentration of 312 pgr/ml.
An electrode of a sensing member was charged with Ab in an identical manner to that described under 3.5.
A TNT stock solution was prepared similarly to the manner of preparation of the 2,4-DNT stock solution in Example 3.5. A 50 ml sample of the TNT stock solution was injected into the cell to yield a concentration of 6.25 pgr/ml in the cell. […] After rinsing the cell and stabilization of the crystal frequency, a second sample of TNT was injected to the cell, yielding a concentration of 62.5 pgr/ml^−1. […]

## Cc1c([N+](=O)[O-])cc([N+](=O)[O-])cc1[N+](=O)[O-]
[1]; ELISA inhibition
  blocking of 5B3 binding to either TNP or DNS antigen: blocked by very low amounts
[1]; preincubation with 10^−5 M, hybridoma 5B3 among the six inhibited
  inhibition of hybridoma supernatant binding to TNP-BSA: inhibited
[2]; 6.25 pgr/ml (FIG. 13 curve a)
  crystal frequency increase Δf: 7 Hz
[2]; 6.25 pgr/ml, electrode recharged with Ab (FIG. 15)
  crystal frequency increase Δf: 18 Hz
[2]; 62.5 pgr/ml^−1, second sample (FIG. 13 curve b)
  crystal frequency increase Δf: 16 Hz
[2]; micro-cell, 100 pgr/ml in the cell, after 3 mins (FIG. 22)
  crystal frequency increase: about 15 Hz
